Here are results for one molecule from patent EP4821496A1, “USE OF BENZO NITROGEN-CONTAINING HETEROAROMATIC RING DERIVATIVE IN TREATING COMPLEMENT FACTOR B-MEDIATED DISEASE” (dated 2026).

Chains of the proteins cited; added tags and fusions are not shown. Residues count along the entry.
UniProt P00751, 260-764 limits assumed: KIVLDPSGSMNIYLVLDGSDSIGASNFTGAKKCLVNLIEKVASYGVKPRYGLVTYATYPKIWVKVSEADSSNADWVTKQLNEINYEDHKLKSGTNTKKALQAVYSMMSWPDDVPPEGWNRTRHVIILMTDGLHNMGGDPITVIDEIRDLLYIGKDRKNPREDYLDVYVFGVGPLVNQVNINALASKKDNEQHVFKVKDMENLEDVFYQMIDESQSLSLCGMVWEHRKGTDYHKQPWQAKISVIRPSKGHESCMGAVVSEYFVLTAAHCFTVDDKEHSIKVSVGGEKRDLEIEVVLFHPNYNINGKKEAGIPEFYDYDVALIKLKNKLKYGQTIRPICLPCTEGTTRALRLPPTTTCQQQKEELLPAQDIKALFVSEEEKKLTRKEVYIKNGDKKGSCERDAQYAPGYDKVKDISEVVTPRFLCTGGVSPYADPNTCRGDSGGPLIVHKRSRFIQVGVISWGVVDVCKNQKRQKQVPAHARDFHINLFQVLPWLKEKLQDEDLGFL
UniProt Q91132, 23-649 partner limits assumed: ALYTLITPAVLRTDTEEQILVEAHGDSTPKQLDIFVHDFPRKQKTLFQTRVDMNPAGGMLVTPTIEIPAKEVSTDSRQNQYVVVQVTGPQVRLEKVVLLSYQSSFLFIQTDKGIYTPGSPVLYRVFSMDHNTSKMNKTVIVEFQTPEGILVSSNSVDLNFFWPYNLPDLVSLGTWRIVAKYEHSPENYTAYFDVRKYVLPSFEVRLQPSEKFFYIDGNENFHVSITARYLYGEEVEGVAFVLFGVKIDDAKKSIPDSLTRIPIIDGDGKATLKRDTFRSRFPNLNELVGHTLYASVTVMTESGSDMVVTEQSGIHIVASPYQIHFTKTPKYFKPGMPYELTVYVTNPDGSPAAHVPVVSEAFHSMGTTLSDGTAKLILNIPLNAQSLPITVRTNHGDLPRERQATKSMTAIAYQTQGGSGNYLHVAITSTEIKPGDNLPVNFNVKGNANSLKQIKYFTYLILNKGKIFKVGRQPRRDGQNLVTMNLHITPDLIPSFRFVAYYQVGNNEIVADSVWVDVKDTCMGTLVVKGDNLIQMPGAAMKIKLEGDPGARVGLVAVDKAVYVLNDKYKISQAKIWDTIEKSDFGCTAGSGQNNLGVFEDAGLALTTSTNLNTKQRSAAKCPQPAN
UniProt Q91132, 733-984 partner limits assumed: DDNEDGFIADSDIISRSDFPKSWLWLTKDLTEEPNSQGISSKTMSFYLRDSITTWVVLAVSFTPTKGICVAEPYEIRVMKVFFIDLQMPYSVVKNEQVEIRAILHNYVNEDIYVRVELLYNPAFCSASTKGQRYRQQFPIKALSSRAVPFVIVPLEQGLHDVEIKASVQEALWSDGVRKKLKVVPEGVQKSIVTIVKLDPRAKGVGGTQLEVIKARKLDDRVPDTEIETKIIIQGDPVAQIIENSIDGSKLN
UniProt Q91132, 1264-1642 partner limits assumed: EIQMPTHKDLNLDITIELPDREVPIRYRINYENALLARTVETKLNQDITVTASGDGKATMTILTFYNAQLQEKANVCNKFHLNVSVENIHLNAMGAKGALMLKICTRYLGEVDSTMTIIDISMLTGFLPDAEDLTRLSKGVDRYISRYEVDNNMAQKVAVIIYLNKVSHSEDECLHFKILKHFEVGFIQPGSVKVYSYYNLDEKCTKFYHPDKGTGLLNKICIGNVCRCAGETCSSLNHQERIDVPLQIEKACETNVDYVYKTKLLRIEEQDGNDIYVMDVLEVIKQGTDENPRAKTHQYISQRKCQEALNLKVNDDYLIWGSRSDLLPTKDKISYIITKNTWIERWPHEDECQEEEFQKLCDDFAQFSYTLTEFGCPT

A word on the IC90: it is the concentration at which the effect reaches the 90% level. Lower therefore signals greater potency.

One experiment addresses human complement FB (Homo sapiens, UniProt P00751). The experiment in a line: Effect on the enzymatic activity of complement factor B in vitro (CVFBb complex, C3a ELISA). The settings on record: CVFBb complex (C3 convertase), C3 substrate, C3a quantified by ELISA. In general terms: In an ELISA, binding on a coated surface is turned into a signal by an enzyme label.
In experiment [1] the target is complement alternative pathway (AP) (Homo sapiens, UniProt P00751). The experiment in a line: Inhibition of alternative pathway (AP) deposition in human serum (WIESLAB AP kit, C5b-9 yield).
For experiment [2], the system named is Fx1A-induced Heymann nephritis. Description: Anti-serum Fx1A-induced passive Heymann nephritis in rats. Conditions: rats, 20, 60 and 120 mg/kg.
Experiment [3] concerns BSA-induced IgA nephritis. The experiment in a line: Rat model of BSA-induced IgA nephritis. Conditions: rats.

Take `[2H]C([2H])([2H])Oc1cc(C)c2[nH]ccc2c1CN1CC[C@@H](C2CC2)C[C@H]1c1ccc(C(=O)O)cc1`: the IC90 was found to be 140 nM at human complement FB and 51.6 nM in experiment [1] (human serum diluted 30-fold, 37°C 60 minutes, C5b-9 yield). For the same molecule, the “Inh%@Max dose” value in experiment [1] (Max dose 5000 nM) is recorded as 99.6%. In addition, in experiment [2] (dose-dependent, Figure 4), the renal pathology entry was “reduced renal tubular injury, renal fibrosis, renal interstitial inflammation, and total renal pathological scores”. Besides, the “activity of the serum complement marker AP” value in experiment [2] (twice daily, Figure 3) is given as “inhibited the activity of the serum complement marker AP in rats in a dose-dependent manner”. Besides, in experiment [3] (60 mg/kg, superior to LNP023 at the same dose, Figure 8), the “renal C3 deposition” value is “inhibited C3 deposition in rat kidneys”. For the same molecule, the “serum C5b-9 deposition” value in experiment [3] (20 and 60 mg/kg, experimental endpoint, Figure 6) is “inhibited serum C5b-9 deposition in rats in a dose-dependent manner”. In addition, the “serum IgA level” value in experiment [3] (20 and 60 mg/kg, superior to LNP023 at the same doses, Figure 7) is given as “significantly reduced the content of IgA”.
